Literature values as cited in US4608364A, “Pharmaceutical agent for the treatment of diabetes mellitus” (Hoechst Aktiengesellschaft, priority 1983, dated 1986).

Conditions: cited from earlier work

insulin [reference compound]
in vivo half life: about 7 minutes
